Experiments:
Assay type in all cases: binding
mutant A1R [1] = molecular target: mutant A1R (Homo sapiens, UniProt P30542, N280A); conditions: N280^7.45A
mutant A1R [2] = molecular target: mutant A1R (Homo sapiens, UniProt P30542, L242A/L245A); conditions: L242^6.43A/L245^6.46A
mutant A1R [3] = molecular target: mutant A1R (Homo sapiens, UniProt P30542, G279A); conditions: G279^7.44A
mutant A1R [4] = molecular target: mutant A1R (Homo sapiens, UniProt P30542, S246A); conditions: S246^6.47A

By UniProt entry, the sequences of proteins in these tests, tags left out.
UniProt P30542, whole entry N280A: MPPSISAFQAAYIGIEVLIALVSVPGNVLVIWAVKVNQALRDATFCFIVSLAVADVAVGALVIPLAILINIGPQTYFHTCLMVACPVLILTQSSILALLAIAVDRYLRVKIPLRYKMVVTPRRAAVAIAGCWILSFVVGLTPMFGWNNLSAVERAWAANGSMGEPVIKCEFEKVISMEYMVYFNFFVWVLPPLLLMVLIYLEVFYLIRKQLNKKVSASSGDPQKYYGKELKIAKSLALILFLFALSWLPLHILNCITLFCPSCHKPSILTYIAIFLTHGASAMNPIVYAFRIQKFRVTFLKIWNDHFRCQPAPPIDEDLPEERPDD
UniProt P30542, whole entry L242A/L245A: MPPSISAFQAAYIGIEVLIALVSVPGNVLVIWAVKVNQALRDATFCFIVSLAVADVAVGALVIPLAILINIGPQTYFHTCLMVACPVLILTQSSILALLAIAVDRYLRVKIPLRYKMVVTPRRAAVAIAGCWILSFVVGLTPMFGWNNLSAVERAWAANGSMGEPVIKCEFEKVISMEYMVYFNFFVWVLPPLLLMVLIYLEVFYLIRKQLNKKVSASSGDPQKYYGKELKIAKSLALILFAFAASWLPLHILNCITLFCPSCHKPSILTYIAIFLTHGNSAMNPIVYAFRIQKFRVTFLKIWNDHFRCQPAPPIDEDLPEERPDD
UniProt P30542, whole entry G279A: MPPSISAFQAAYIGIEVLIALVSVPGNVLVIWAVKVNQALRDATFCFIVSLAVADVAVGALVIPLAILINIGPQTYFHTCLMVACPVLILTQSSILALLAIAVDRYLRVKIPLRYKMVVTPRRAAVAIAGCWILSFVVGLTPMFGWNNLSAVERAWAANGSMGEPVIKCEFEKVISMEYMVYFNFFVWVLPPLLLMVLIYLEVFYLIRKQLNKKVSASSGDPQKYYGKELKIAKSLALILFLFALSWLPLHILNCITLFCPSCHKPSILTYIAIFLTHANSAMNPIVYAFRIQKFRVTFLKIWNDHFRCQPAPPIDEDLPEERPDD
UniProt P30542, whole entry S246A: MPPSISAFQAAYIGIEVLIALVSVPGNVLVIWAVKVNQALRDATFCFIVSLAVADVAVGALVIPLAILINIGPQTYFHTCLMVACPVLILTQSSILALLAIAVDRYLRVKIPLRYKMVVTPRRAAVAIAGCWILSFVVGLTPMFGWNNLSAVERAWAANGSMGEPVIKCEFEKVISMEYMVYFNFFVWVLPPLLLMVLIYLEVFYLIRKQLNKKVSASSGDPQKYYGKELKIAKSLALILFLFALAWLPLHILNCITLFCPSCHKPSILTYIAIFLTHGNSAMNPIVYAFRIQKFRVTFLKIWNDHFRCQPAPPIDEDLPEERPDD

CCNC(=O)[C@H]1O[C@@H](n2cnc3c(N)ncnc32)[C@H](O)[C@@H]1O [NECA, reference compound]
change in orthosteric agonist affinity vs wild type (mutant A1R [1]): significantly enhanced the affinity
change in orthosteric agonist affinity vs wild type (mutant A1R [2]): significantly enhanced the affinity
change in orthosteric agonist affinity vs wild type (mutant A1R [3]): reduced NECA affinity
change in orthosteric agonist affinity vs wild type (mutant A1R [4]): significantly enhanced the affinity
